Data from patent US10106526B2, “Inhibitors of cyclin-dependent kinase 7 (CDK7)” (SYROS PHARMACEUTICALS, INC., priority 2014, dated 2018).

By UniProt entry, the sequences of proteins in these tests, tags left out.
UniProt P50613, whole entry: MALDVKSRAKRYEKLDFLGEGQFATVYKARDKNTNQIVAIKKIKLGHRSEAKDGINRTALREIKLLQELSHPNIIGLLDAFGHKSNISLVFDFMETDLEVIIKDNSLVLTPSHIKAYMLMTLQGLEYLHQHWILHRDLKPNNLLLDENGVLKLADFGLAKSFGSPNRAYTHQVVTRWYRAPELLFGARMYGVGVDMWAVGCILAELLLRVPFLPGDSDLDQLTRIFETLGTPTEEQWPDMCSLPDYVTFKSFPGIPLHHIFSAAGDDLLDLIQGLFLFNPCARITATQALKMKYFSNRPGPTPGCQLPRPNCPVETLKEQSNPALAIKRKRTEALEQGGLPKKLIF
UniProt P51948, whole entry partner: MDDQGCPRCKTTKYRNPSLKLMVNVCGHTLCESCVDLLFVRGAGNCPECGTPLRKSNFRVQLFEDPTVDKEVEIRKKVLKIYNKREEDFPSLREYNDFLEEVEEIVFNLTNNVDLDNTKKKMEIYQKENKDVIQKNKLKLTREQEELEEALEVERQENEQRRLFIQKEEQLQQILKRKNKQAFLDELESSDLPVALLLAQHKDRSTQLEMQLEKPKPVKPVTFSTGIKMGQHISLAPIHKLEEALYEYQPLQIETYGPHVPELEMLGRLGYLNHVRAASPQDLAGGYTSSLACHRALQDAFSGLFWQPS
UniProt P51946, whole entry partner: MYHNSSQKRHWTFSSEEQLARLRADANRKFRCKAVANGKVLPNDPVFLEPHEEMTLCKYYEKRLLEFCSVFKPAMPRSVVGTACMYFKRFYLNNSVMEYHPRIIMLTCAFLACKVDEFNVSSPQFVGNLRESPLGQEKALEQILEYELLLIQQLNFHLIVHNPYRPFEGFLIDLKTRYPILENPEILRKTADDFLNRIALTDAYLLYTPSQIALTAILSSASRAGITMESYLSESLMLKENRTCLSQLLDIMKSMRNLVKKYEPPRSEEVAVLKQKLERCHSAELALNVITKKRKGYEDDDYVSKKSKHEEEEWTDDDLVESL

Legend:
[1] = biological target: CDK7/Cyclin H/MAT1 trimeric complex (Homo sapiens, UniProt P50613); test: CDK7 kinase assay, Caliper/LabChip EZ Reader (Biortus Biosciences); conditions: read-out: CDK7 Inhibition (IC50), CDK7/Cyclin H/MAT1 10 nM, ATP 2 mM, FAM-CDK7tide 2 μM, 30 min incubation
[2] = system: A673 cells; test: Inhibition of proliferation of A673 cells (CyQUANT, 72 hour); conditions: read-out: A673 IC50, 72 hour proliferation
Description: A673 cells are a cell line derived from human muscle Ewing's sarcoma. Representative compounds of the invention were tested at different concentrations (from 4 μM to 126.4 pM; 0.5 log serial dilutions) for their ability to inhibit the proliferation of A673 cells. Known CDK inhibitors flavopiridol and triptolide were used as positive controls. Cells were grown in Dulbecco's Modified Eagle's Medium, +10% FBS+1 mM Sodium Pyruvate. The cells were cultured at 37° C. in a humidified chamber in the presence of 5% CO2. Proliferation assays were conducted over a 72 hour time period. CyQUANT® (Life Technologies, Chicago, Ill. USA) was used to assess the anti-proliferative effects of the compounds following manufacturer's directions and utilizing the reagents supplied with the CyQUANT® kit. In this table, “A” represents an IC50 of less than 500 nM; “B” an IC50 of between 500 nM and 5 μM; and “C” an IC50 of greater than 5 μM.

Row | SMILES | pIC50 [1] | pIC50 [2]
1 | C=CC(=O)N1CCN2C[C@@H](Nc3ncc(Cl)c(-c4c[nH]c5ccccc45)n3)C[C@H]2C1 | 6.00 to 7.00 | > 6.30
2 | CN(C)C/C=C/C(=O)N1CC2(CCN([C@H]3CCC[C@@H](Nc4ncc(Cl)c(-c5c[nH]c6ccccc56)n4)C3)C2)C1 | 6.00 to 7.00 | > 6.30
3 | CON(C)C/C=C/C(=O)N1CCN([C@H]2CCC[C@@H](Nc3ncc(Cl)c(-c4c[nH]c5ccccc45)n3)C2)CC1 | 6.00 to 7.00 | > 6.30
4 | CN(C)C/C=C/C(=O)NCC1CN([C@@H]2CCC[C@@H](Nc3ncc(Cl)c(-c4c[nH]c5ccccc45)n3)C2)CCO1 (some centres unmarked) | 6.00 to 7.00 | > 6.30
5 | C=CC(=O)N1CCN(C2CCC[C@@H](Nc3ncc(Cl)c(-c4c[nH]c5ccccc45)n3)C2)[C@H](C)C1 (some centres unmarked) | > 7.00 | > 6.30
6 | CN(C)C/C=C/C(=O)NC[C@H]1C[C@@H]1C(=O)N[C@H]1CCC[C@@H](Nc2ncc(Cl)c(-c3c[nH]c4ccccc34)n2)C1 | > 7.00 | > 6.30
7 | C=CC(=O)N1CCN([C@H]2CCC[C@@H](Nc3ncc(Cl)c(-n4cnc5ccccc54)n3)C2)CC1 | 6.00 to 7.00 | > 6.30
8 | C=CC(=O)N1CCN([C@@H]2CC[C@H](Nc3ncc(Cl)c(-c4c[nH]c5ccccc45)n3)C2)CC1 | > 7.00 | > 6.30
9 | C=CC(=O)N1CCN([C@H]2CCC[C@@H](Nc3ncc(Cl)c(C4C(=O)Nc5ccccc54)n3)C2)CC1 (some centres unmarked) | < 6.00 | < 5.30
10 | CN(C)C/C=C/C(=O)NCC1CN([C@H]2CCC[C@@H](Nc3ncc(Cl)c(-c4c[nH]c5ccccc45)n3)C2)CCO1 (some centres unmarked) | > 7.00 | > 6.30
11 | C=CC(=O)N1CCCC(N[C@H]2CCC[C@@H](Nc3ncc(Cl)c(-c4c[nH]c5ccccc45)n3)C2)C1 (some centres unmarked) | > 7.00 | > 6.30
12 | CN(C)C/C=C/C(=O)N1CCN([C@H]2CCC[C@@H](Nc3ncc(Cl)c(-c4coc5ccccc45)n3)C2)CC1 | > 7.00 | > 6.30
13 | C=CC(=O)N1CCC(N(C)C[C@H]2CCC[C@@H](Nc3ncc(Cl)c(-c4c[nH]c5ccccc45)n3)C2)CC1 | > 7.00 | > 6.30
14 | CN(C)C/C=C/C(=O)N1CCN([C@H]2CCC[C@@H](Nc3ncc(Cl)c(-n4cnc5ccccc54)n3)C2)CC1 | 6.00 to 7.00 | > 6.30
15 | C=CC(=O)Nc1ccc2c(c1)CCN(C1CCCC(Nc3ncc(Cl)c(-c4c[nH]c5ccccc45)n3)C1)C2=O (centres unmarked) | 6.00 to 7.00 | > 6.30
16 | C=CC(=O)N1CCN(CCN2CCC[C@@H](Nc3ncc(Cl)c(-c4c[nH]c5ccccc45)n3)C2)CC1 | > 7.00 | > 6.30
17 | C=CC(=O)N1CCN([C@H]2CCC[C@@H](Nc3nc(-c4c[nH]c5ccccc45)ncc3Cl)C2)CC1 | < 6.00 | > 6.30
18 | C=CC(=O)N1CCC(OC[C@H]2CCC[C@@H](Nc3ncc(Cl)c(-c4c[nH]c5ccccc45)n3)C2)CC1 | 6.00 to 7.00 | > 6.30
19 | C=CC(=O)NCC1CN(C2CCCC(Nc3ncc(Cl)c(-c4c[nH]c5ccccc45)n3)C2)CCO1 (single isomer, unassigned) [336] | > 7.00 | 5.30 to 6.30
20 | CN(C)C/C=C/C(=O)N1CCN(CCN2CCC[C@@H](Nc3ncc(Cl)c(-c4c[nH]c5ccccc45)n3)C2)CC1 | > 7.00 | > 6.30
21 | C=CC(=O)N1CCC(C(=O)N[C@H]2CCC[C@@H](Nc3ncc(CC)c(-c4c[nH]c5ccccc45)n3)C2)CC1 | > 7.00 | > 6.30
22 | C=CC(=O)NC[C@H]1C[C@H]1C(=O)N[C@H]1CCC[C@@H](Nc2ncc(Cl)c(-c3c[nH]c4ccccc34)n2)C1 | > 7.00 | > 6.30
23 | C=CC(=O)N1CCC(CN[C@H]2CCC[C@@H](Nc3ncc(Cl)c(-c4n[nH]c5ccccc45)n3)C2)C1 (some centres unmarked) | 6.00 to 7.00 | > 6.30
24 | CN(C)C/C=C/C(=O)N1CCN([C@H]2CCC[C@@H](Nc3ncc(Cl)c(-c4c[nH]c5cccc(Cl)c45)n3)C2)CC1 | > 7.00 | > 6.30
25 | C=CC(=O)N[C@H]1CC[C@H](CN[C@@]2(C)CCC[C@@H](Nc3ncc(Cl)c(-c4c[nH]c5ccccc45)n3)C2)CC1 | > 7.00 | > 6.30
26 | CN(C)C/C=C/C(=O)N1CCC(CN[C@H]2CCC[C@@H](Nc3ncc(Cl)c(-c4n[nH]c5ccccc45)n3)C2)C1 (some centres unmarked) | > 7.00 | > 6.30
27 | C=CC(=O)N1CCN([C@H]2CCC[C@@H](Nc3ncc(Cl)c(-c4cn(C)c5ccccc45)n3)C2)CC1 | 6.00 to 7.00 | > 6.30
28 | C=CC(=O)N1CCN([C@H]2CCC[C@@H](Nc3ncc(Cl)c(-c4c[nH]c5ccccc45)n3)C2)CC1C(F)(F)F (some centres unmarked) | 6.00 to 7.00 | > 6.30

pIC50: −log10 of the molar value.
